Here are results for 26 molecules from paper PMC7723054.

Common to all, as to assay: FOREST: bead pull-down of RNA structure library v1, barcode microarray; U1A/LIN28A: 20 mM HEPES pH 7.5, 80 mM KCl, 20 mM NaCl, 10% glycerol, 2 mM DTT, 0.1 ug/uL BSA, 4 C; BG4/CIRBP/DHX36: 10 mM Tris-HCl pH 7.5, 100 mM KCl (or LiCl),; high values mean tight binding
In experiment [1] the target is T1, LIN28A (human?, UniProt Q9H9Z2 1-209).
T1 sequence: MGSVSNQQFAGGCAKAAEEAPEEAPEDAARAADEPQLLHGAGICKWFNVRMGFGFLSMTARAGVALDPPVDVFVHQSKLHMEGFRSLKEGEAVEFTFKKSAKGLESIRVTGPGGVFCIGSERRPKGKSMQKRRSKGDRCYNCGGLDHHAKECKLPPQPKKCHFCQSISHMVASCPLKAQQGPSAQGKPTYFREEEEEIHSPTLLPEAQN

Experiment [2] has as its target T2, CIRBP (Homo sapiens, UniProt Q14011 1-172).
T2 sequence: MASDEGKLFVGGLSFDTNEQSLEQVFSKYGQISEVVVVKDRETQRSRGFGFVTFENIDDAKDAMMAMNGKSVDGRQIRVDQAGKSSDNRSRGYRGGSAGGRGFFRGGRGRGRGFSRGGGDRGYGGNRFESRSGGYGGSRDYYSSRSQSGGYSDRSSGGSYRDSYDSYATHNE

In experiment [3] the target is T3, DHX36 (Homo sapiens, UniProt Q9H2U1 1-1008).
T3 sequence: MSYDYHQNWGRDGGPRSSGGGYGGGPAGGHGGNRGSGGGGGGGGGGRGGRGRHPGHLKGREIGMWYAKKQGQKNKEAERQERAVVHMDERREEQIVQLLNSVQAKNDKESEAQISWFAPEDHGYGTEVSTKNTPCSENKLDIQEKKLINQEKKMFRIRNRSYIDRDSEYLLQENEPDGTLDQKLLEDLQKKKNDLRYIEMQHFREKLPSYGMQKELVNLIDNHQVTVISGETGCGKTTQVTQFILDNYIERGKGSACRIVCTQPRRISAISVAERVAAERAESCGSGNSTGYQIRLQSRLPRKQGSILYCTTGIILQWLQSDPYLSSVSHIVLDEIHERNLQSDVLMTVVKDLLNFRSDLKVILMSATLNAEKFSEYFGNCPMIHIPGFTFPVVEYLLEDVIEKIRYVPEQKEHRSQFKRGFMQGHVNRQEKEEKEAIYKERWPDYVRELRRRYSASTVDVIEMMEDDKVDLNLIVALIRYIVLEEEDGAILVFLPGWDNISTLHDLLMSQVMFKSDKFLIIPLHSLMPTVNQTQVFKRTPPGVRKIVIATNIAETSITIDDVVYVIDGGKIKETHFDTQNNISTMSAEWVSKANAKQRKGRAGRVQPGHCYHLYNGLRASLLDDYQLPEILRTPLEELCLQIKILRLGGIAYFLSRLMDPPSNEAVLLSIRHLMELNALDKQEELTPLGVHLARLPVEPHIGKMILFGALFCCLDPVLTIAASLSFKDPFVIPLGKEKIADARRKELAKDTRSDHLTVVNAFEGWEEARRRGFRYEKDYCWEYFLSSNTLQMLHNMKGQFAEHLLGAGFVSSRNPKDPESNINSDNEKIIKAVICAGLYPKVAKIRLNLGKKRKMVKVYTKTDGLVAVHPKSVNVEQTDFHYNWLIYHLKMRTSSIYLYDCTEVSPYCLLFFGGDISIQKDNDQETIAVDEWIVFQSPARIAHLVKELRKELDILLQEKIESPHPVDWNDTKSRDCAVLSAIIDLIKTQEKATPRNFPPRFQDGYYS

The other results are listed elsewhere or left out.

B1: NEAT1_ParasoR_ID29 (structured_RNA)
RNA: GGGACCUGCUGAUAGUCUAAAAGCCCCGGGUGUACGAAGUUUCAGCGUGUAUGAAUUUAUAAAUCACUGGUCUUGUAAUUAAAAUUCAAACACGCUGAAGCUUCGUGCAC
On to B1, for which the binding signal in experiment [1] is -0.604 z-score; in experiment [2], 0.0867 z-score; in experiment [3] it was 0.0509 z-score.

B2: hsa-mir-4260 (structured_RNA)
RNA: GGGAACAAGUUGAGCGAGAUCCCGACAAGGUGUACGAAGUUUCAGCCCCACUUCCUGGAGCUGAAGCUUCGUGCAC
For the molecule B2, the binding signal in experiment [1] was -0.565 z-score; in experiment [2], 0.598 z-score; in experiment [3], 0.173 z-score.

B3: hsa-mir-150 (structured_RNA)
RNA: GGGACUCCGUGGGUAGAAAAGACACGUUGGUGUACGAAGUUUCAGCCCAGUGCUGGGCUCAGACCCUGGGCUGAAGCUUCGUGCAC
Turning to B3, the binding signal in experiment [1] was -0.601 z-score; in experiment [2] it was 0.0994 z-score; in experiment [3] it was -0.104 z-score.

B4: hsa-mir-3917 (structured_RNA)
RNA: GGGAAUUAAUGCCGGUAUCCUCUAGCCGGGUGUACGAAGUUUCAGCUGGUCAGGCGGCUGCUGAAGCUUCGUGCAC
Regarding B4, the results for the binding signal in experiment [1], in experiment [2] and in experiment [3] were -0.548 z-score, -0.672 z-score and 0.197 z-score, respectively.

B5: hsa-mir-4512 (structured_RNA)
RNA: GGGAAGAUGCUCUCCGGGCGAACUUAGUGGUGUACGAAGUUUCAGCCUCGUCUCUACAAAAAAUUGAGACAGGGCUGAAGCUUCGUGCAC
In the case of B5, the binding signal in experiment [1] was -0.569 z-score; in experiment [2], -0.0481 z-score; in experiment [3], -0.393 z-score.

B6: hsa-mir-596 (structured_RNA)
RNA: GGGAAAACAGUAGCGAACCGGACCUGUCGGUGUACGAAGUUUCAGCCGGGAACCUGCCUCCCGGCUGAAGCUUCGUGCAC
Turning to B6, the binding signal is -0.58 z-score in experiment [1], 1.71 z-score in experiment [2] and -0.0414 z-score in experiment [3].

B7: hsa-mir-6071 (structured_RNA)
RNA: GGGACCAGGCCCCGAAAGUUCGAAGAUCGGUGUACGAAGUUUCAGCAGGCUCUGGGUCCGGCUUACUCCCUAGCUUACUGUCCUCAGAACCCGCUGAAGCUUCGUGCAC
B7: the figures for the binding signal in experiment [1], in experiment [2] and in experiment [3] were -0.623 z-score, -0.452 z-score and 0.0634 z-score, respectively.

B8: hsa-mir-125b-1 (structured_RNA)
RNA: GGGAAGGUCCUAGCGACGUAUUACCAAAGGUGUACGAAGUUUCAGCUUGUGAUGUUUACCGUUUAAAUCCACGGGCUGAAGCUUCGUGCAC
For B8, the values for the binding signal in experiment [1], in experiment [2] and in experiment [3] were -0.554 z-score, -0.988 z-score and -0.32 z-score, respectively.

B9: hsa-mir-3149 (structured_RNA)
RNA: GGGACAGGUGGUAAGGUAGGCGGAAACAGGUGUACGAAGUUUCAGCCACACAUACAUAUAUAUAUGUUUGGCUGAAGCUUCGUGCAC
Consider B9, for which the binding signal was -0.615 z-score in experiment [1], 0.165 z-score in experiment [2] and 0.156 z-score in experiment [3].

B10: hsa-mir-514a-1 (structured_RNA)
RNA: GGGACAGUACCUGGAUGGGCUACAUUUGGGUGUACGAAGUUUCAGCCAAUCAUGUAUAAUUAAAUUUGAUUGGCUGAAGCUUCGUGCAC
As for B10, the binding signal in experiment [1] was -0.589 z-score; in experiment [2] it was -1 z-score; in experiment [3] it was -0.643 z-score.

B11: hsa-mir-767 (structured_RNA)
RNA: GGGAAAUUGUCAAUCCGGGACCAUUCUGGGUGUACGAAGUUUCAGCCAUGCAGCAUGCUUGUCUGGCUGAAGCUUCGUGCAC
Take B11: the figures for the binding signal in experiment [1], in experiment [2] and in experiment [3] were -0.569 z-score, 0.392 z-score and -0.864 z-score, respectively.

B12: hsa-mir-548o-2 (structured_RNA)
RNA: GGGAUAACAGCCCCAGCGAGUCACUCGUGGUGUACGAAGUUUCAGCUUUGCCAUUAAAAGUAAUGCGGCCAAGCUGAAGCUUCGUGCAC
As for B12, the binding signal in experiment [1] was -0.554 z-score; in experiment [2], -0.952 z-score; in experiment [3] it was -1.31 z-score.

B13: hsa-mir-3152 (structured_RNA)
RNA: GGGAAACCAGAGAUCGUGUAGGGAAUAUGGUGUACGAAGUUUCAGCCACAAGACUAGGCUUCCCUGUGGCUGAAGCUUCGUGCAC
Regarding B13, the binding signal in experiment [1] was -0.601 z-score; in experiment [2] it was -0.272 z-score; in experiment [3], 0.288 z-score.

B14: hsa-mir-3175 (structured_RNA)
RNA: GGGAAAACUGCAACAACGAUAGCGCUUCGGUGUACGAAGUUUCAGCACGUCUGGCCGCGUGCGCAUGUGCUGAAGCUUCGUGCAC
On to B14, for which the binding signal in experiment [1] is -0.609 z-score; in experiment [2], 0.0179 z-score; in experiment [3] it was -1.37 z-score.

B15: hsa-mir-4288 (structured_RNA)
RNA: GGGAAGCCAAUGAGGACUCUCAGAGCUAGGUGUACGAAGUUUCAGCCAGCACUGAGCAGGCAGUGUUGUGCUGAAGCUUCGUGCAC
As for B15, the figures for the binding signal in experiment [1], in experiment [2] and in experiment [3] were -0.565 z-score, 0.569 z-score and 0.0164 z-score, respectively.

B16: hsa-mir-3929 (structured_RNA)
RNA: GGGACGACUUACCUGUCGUCGGUUAGCUGGUGUACGAAGUUUCAGCAAUCCCAGCACUUUGGGAGGCUGAAGCUUCGUGCAC
For B16, the binding signal was -0.606 z-score in experiment [1], -0.791 z-score in experiment [2] and -0.823 z-score in experiment [3].

B17: hsa-mir-4294 (structured_RNA)
RNA: GGGAACGUUCGAGACCCUCUCUUGUGCCGGUGUACGAAGUUUCAGCGGGCCAUGUCUGUGAGGGCCCAGCUGAAGCUUCGUGCAC
Regarding B17, the binding signal in experiment [1] was -0.569 z-score; in experiment [2], 0.15 z-score; in experiment [3], 0.119 z-score.

B18: hsa-mir-5685 (structured_RNA)
RNA: GGGAAUCGAGUUCUCCCGGUAAGACAUCGGUGUACGAAGUUUCAGCCGGGCCCCUCCCCUCAAUGGGCCCGGCUGAAGCUUCGUGCAC
Regarding B18, the binding signal in experiment [1] was -0.551 z-score; in experiment [2], -0.519 z-score; in experiment [3], -0.899 z-score.

B19: hsa-mir-3198-1 (structured_RNA)
RNA: GGGAAACGAAAAUAGAGUUUGAACGACUGGUGUACGAAGUUUCAGCAGCAGUACCAGACGGUUCUGUGGGCUGAAGCUUCGUGCAC
As for B19, the binding signal in experiment [1] is -0.597 z-score; in experiment [2], 0.881 z-score; in experiment [3] it was -0.672 z-score.

B20: hsa-mir-4283-1_4283-2 (structured_RNA)
RNA: GGGAACGUAAAAUUAGGGCCAGACGAAUGGUGUACGAAGUUUCAGCGUUUGCAAGGGGUGUUUCUGUCCAUGGUCAGGCGCUGAAGCUUCGUGCAC
Regarding B20, the binding signal was -0.575 z-score in experiment [1], -1.35 z-score in experiment [2] and -0.26 z-score in experiment [3].

B21: hsa-mir-378d-2 (structured_RNA)
RNA: GGGAAGGUGUACGCAGCCAUCUUAGGAUGGUGUACGAAGUUUCAGCAAAACUUUCAUCCAAGUCAUUGCUGAAGCUUCGUGCAC
Consider B21, for which the binding signal in experiment [1] was -0.551 z-score; in experiment [2] it was 0.377 z-score; in experiment [3] it was 0.203 z-score.

B22: hsa-mir-4322 (structured_RNA)
RNA: GGGAAACAUUGGACGCUAACCGUGGAGCGGUGUACGAAGUUUCAGCGUGUCGCCCCACGAGGGGGACUGUGCUGAAGCUUCGUGCAC
For B22, the binding signal in experiment [1] is -0.599 z-score; in experiment [2] it was 0.159 z-score; in experiment [3] it was -0.335 z-score.

B23: hsa-mir-1910 (structured_RNA)
RNA: GGGAACCAGCUGUGUACGGAUUCUACGUGGUGUACGAAGUUUCAGCCCGCCUUUGUGCUGUCCUUGGAGGGAGGGCUGAAGCUUCGUGCAC
Regarding B23, the binding signal in experiment [1] was -0.623 z-score; in experiment [2] it was -0.409 z-score; in experiment [3], 0.203 z-score.

B24: hsa-mir-3920 (structured_RNA)
RNA: GGGAGAGCUAAAAUUGCACGAAAUGCAUGGUGUACGAAGUUUCAGCUAGUACAGGUGAGAUUGUACUGGCUGAAGCUUCGUGCAC
Turning to B24, the results for the binding signal in experiment [1], in experiment [2] and in experiment [3] were -0.595 z-score, -0.731 z-score and -0.23 z-score, respectively.

B25: hsa-mir-140 (structured_RNA)
RNA: GGGAACGCACUAUCCGGUACUUCCUCGGGGUGUACGAAGUUUCAGCGGUAGGUUACGUCAUGCUGUUCUACCGCUGAAGCUUCGUGCAC
With B25, the figures for the binding signal in experiment [1], in experiment [2] and in experiment [3] were -0.621 z-score, -0.314 z-score and -0.65 z-score, respectively.

B26: hsa-mir-6813 (structured_RNA)
RNA: GGGAACAAGGGUUACGUAUACAACGUUUGGUGUACGAAGUUUCAGCGGUUCUCAGUCAGAACCGCUGAAGCUUCGUGCAC
Regarding B26, the binding signal in experiment [1] was -0.575 z-score; in experiment [2] it was 0.535 z-score; in experiment [3], -0.492 z-score.
